Results reported in patent US9309242B2, “Substituted pyrido[2,3-b]pyrazines as FGFR kinase inhibitors” (priority 2011, dated 2016).

Protein sequences, listed by entry. Tags and fused reporters are not part of them. Residues count along the entry.
UniProt P22607, whole entry: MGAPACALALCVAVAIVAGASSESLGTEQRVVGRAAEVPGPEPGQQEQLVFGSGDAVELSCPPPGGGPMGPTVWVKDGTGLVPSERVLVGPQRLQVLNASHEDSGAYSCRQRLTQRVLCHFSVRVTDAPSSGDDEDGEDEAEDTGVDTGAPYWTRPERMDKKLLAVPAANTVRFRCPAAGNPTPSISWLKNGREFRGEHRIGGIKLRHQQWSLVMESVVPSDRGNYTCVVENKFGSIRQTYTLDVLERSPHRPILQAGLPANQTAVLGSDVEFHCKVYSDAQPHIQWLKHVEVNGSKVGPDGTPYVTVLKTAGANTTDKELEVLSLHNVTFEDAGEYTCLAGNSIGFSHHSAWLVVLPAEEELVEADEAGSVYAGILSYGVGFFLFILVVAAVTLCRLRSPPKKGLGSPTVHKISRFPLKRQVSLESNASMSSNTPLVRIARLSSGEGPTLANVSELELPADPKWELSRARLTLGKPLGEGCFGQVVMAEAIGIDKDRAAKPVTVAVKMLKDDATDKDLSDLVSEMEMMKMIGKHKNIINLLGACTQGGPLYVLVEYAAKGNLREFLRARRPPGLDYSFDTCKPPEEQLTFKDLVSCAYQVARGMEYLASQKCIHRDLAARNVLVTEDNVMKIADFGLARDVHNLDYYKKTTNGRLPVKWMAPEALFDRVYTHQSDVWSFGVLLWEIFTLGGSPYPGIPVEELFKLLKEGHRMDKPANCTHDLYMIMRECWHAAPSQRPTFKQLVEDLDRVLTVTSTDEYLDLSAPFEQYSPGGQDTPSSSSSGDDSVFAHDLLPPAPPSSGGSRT
UniProt P22607, 23-806 limits assumed: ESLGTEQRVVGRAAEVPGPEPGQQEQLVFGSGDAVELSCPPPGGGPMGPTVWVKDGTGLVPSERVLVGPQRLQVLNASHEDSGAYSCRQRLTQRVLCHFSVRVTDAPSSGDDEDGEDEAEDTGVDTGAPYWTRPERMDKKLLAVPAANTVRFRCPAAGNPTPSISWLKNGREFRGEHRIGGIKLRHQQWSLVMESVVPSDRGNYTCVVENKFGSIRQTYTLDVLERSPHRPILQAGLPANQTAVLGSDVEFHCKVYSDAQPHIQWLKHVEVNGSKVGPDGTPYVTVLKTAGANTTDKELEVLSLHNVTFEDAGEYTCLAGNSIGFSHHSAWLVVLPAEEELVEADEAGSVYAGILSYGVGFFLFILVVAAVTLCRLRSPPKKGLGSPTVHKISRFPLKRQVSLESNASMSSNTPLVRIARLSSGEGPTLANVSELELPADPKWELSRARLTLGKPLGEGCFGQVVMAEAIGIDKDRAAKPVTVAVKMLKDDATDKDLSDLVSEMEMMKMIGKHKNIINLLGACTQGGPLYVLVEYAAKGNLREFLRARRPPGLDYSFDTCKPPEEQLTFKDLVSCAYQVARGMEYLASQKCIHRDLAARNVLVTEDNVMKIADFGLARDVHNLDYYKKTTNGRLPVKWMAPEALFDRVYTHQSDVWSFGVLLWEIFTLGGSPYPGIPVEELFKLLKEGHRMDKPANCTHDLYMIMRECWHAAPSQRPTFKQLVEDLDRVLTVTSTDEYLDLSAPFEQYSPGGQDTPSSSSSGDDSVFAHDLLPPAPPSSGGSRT
UniProt P35968, whole entry: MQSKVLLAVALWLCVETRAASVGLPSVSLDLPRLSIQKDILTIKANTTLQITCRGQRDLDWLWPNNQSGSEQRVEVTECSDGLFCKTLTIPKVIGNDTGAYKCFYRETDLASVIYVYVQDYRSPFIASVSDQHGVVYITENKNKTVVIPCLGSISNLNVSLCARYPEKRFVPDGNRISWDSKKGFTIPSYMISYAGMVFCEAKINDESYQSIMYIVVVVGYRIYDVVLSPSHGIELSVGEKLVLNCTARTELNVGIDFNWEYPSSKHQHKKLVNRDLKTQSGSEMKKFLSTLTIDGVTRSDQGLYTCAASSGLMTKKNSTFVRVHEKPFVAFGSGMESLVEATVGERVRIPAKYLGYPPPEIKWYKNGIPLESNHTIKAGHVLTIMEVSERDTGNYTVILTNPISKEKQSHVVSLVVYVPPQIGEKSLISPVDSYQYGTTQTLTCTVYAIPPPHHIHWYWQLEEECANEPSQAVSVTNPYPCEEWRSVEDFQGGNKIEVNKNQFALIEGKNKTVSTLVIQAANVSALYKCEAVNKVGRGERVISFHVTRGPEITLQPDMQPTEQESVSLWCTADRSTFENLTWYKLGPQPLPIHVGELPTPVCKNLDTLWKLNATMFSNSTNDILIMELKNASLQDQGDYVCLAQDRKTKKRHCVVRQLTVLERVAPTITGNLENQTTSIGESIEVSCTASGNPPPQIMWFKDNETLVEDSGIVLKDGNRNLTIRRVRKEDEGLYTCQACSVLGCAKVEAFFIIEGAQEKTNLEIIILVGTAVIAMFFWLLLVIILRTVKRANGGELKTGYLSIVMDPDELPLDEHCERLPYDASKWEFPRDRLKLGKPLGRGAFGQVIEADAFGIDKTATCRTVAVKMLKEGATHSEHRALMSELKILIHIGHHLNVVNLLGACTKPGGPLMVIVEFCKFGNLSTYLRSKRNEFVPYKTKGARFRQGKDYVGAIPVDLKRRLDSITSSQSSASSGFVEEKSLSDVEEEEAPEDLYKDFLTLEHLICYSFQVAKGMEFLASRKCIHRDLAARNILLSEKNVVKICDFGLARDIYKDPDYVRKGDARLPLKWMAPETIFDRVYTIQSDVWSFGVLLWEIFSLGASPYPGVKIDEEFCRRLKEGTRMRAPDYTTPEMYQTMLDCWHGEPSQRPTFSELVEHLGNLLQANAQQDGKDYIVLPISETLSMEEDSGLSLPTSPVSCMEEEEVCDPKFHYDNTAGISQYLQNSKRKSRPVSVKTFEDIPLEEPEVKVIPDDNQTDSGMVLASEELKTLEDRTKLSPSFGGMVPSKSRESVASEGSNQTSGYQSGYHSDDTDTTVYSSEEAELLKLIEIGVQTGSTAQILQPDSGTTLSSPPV
UniProt P35968, 20-1356 limits assumed: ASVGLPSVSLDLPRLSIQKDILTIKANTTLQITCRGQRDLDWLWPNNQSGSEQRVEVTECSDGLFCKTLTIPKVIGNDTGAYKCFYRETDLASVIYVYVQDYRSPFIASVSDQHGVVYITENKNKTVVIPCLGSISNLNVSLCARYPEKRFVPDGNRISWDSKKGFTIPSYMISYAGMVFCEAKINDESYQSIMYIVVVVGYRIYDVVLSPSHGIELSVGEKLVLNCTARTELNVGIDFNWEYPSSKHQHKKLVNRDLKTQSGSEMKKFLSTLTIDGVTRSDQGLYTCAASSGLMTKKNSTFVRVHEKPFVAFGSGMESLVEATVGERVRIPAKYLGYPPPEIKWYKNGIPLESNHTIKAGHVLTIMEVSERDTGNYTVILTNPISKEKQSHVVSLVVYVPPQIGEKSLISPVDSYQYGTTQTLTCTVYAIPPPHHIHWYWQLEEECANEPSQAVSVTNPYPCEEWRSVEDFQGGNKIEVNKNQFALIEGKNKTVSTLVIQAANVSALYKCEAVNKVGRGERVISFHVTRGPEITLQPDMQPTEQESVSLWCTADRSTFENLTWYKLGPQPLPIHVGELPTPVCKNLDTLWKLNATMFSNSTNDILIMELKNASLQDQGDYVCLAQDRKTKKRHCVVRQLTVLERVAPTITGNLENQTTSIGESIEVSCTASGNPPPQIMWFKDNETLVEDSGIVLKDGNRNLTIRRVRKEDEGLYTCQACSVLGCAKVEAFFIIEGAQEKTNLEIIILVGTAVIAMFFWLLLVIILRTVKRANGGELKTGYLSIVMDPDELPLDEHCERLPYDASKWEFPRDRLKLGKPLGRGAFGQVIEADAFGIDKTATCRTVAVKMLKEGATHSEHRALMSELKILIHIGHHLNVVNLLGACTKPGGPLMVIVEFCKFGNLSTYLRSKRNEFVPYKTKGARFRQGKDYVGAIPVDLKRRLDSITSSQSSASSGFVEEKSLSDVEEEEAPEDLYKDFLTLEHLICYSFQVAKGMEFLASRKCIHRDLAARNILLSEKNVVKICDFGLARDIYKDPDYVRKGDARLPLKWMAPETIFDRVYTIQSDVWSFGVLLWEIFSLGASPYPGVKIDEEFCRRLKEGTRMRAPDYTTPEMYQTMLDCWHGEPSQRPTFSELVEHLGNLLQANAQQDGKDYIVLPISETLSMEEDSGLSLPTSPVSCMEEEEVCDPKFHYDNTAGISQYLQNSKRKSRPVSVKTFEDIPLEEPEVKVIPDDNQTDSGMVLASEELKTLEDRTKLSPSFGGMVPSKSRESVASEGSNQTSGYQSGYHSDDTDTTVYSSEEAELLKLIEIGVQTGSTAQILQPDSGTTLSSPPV
UniProt P22455, whole entry: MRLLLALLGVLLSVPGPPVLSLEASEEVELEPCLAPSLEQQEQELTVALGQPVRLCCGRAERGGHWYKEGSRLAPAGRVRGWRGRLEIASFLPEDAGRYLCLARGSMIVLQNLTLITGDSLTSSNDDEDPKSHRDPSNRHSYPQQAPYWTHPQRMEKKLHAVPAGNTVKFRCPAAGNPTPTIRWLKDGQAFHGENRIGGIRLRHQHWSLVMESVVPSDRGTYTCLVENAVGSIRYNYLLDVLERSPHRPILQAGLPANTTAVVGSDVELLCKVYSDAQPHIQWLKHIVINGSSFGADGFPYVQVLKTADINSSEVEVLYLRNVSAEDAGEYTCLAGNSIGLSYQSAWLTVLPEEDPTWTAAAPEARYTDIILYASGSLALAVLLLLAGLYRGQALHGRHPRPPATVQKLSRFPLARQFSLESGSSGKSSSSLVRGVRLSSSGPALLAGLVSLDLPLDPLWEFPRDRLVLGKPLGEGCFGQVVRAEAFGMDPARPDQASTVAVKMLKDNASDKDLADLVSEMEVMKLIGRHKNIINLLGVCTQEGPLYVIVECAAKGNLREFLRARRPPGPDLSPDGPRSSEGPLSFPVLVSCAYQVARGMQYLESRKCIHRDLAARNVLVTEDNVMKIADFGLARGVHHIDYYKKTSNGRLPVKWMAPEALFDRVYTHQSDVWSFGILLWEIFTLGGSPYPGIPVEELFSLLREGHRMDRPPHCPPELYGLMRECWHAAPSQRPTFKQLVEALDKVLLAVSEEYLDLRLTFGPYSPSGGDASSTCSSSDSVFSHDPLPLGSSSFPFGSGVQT
UniProt P22455, 22-802 limits assumed: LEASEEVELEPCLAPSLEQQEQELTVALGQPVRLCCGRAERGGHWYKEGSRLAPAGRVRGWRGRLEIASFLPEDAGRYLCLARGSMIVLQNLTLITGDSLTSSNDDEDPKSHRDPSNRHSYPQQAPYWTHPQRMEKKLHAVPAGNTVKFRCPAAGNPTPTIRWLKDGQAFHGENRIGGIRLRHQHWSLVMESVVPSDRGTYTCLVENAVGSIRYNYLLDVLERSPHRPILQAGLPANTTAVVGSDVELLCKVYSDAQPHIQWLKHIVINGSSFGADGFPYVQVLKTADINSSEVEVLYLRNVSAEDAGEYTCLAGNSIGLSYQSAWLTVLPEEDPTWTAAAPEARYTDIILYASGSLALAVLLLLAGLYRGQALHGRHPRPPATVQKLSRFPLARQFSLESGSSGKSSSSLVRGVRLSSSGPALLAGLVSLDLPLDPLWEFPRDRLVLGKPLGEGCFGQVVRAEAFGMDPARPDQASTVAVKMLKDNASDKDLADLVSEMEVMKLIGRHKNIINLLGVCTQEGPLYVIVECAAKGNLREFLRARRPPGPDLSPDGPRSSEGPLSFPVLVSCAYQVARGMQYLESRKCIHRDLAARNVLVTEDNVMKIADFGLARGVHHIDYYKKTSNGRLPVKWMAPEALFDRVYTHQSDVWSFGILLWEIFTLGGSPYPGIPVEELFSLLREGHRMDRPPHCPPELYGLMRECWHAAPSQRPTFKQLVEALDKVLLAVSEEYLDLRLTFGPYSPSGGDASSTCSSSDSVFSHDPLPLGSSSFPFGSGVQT

Legend:
[1] = tested on: Ba/F3-Flt3-transfected cells; assay: Ba/F3-Flt3 (plus IL3) cellular proliferation assay, counterscreen with 10 ng/ml murine IL3; assay type: cell-based; settings: plus IL3 (10 ng/ml murine IL3, counterscreen)
Protocol: Ba/F3-Flt3 (Minus IL3 or Plus IL3) (Cellular Proliferation Assay)
(§1) In a 384 well plate, 100 nl of compound dilution in DMSO was sprayed before adding 50 μl cell culture medium (phenol red free RPMI-1640, 10% FBS, 2 mM L-Glutamine and 50 μg/ml Gentamycin) containing 20000 cells per well of Ba/F3-Flt3-transfected cells. Cells were put in an incubator at 37° C. and 5% CO2. After 24 hours, 10 μl of Alamar Blue solution (0.5 mM K3Fe(CN)6, 0.5 mM K4Fe(CN)6, 0.15 mM Resazurin and 100 mM Phosphate Buffer) was added to the wells, incubated for 4 hours at 37° C. and 5% CO2 before RFU's (Relative Fluorescence Units) (ex. 540 nm., em. 590 nm.) were measured in a fluororescence plate reader.
(§2) As a counterscreen the same experiment was performed in the presence of 10 ng/ml murine IL3.

[2] = target: FGFR1 (h) (Homo sapiens, UniProt P11362); assay: FGFR1 (enzymatic assay), TR-FRET; assay type: biochemical; settings: average values if tested multiple times
[3] = target: FGFR3 (h) (Homo sapiens, UniProt P22607); assay: FGFR3 (enzymatic assay), TR-FRET; assay type: biochemical; settings: average values if tested multiple times
[4] = target: Ba/F3-KDR-transfected cells (Homo sapiens, UniProt P35968); assay: Ba/F3-KDR (minus IL3) cellular proliferation assay, Alamar Blue; assay type: cell-based
Protocol: (§3) Ba/F3-KDR (Minus IL3 or Plus IL3) (Cellular Proliferation Assay)
as §1, with “n1” for “nl”, “Ba/F3-KDR-transfected” for “Ba/F3-Flt3-transfected”, “reader. […]” for “reader.”

[5] = target: Ba/F3-FGFR3-transfected cells (Homo sapiens, UniProt P22607); assay: Ba/F3-FGFR3 (minus IL3) cellular proliferation assay, Alamar Blue; assay type: cell-based
[6] = tested on: Ba/F3-FGFR1-transfected cells; assay: Ba/F3-FGFR1 (plus IL3) cellular proliferation assay, counterscreen with 10 ng/ml murine IL3; assay type: cell-based; settings: plus IL3 (10 ng/ml murine IL3, counterscreen)
Protocol: Ba/F3-FGFR1 (Minus IL3 or Plus IL3) (Cellular Proliferation Assay)
as §1, with “Ba/F3-FGFR1-transfected” for “Ba/F3-Flt3-transfected”
as §2

[7] = target: KDR (h) (Homo sapiens, UniProt P35968); assay: KDR (VEGFR2) (enzymatic assay), TR-FRET; settings: average values if tested multiple times
[8] = target: Ba/F3-FGFR4-transfected cells (Homo sapiens, UniProt P22455); assay: Ba/F3-FGFR4 cellular proliferation assay, Alamar Blue; assay type: cell-based
[9] = target: Ba/F3-Flt3-transfected cells (Homo sapiens, UniProt P36888, cells depend on it, form not given); assay: Ba/F3-Flt3 (minus IL3) cellular proliferation assay, Alamar Blue; assay type: cell-based
[10] = target: Ba/F3-FGFR1-transfected cells (Homo sapiens, UniProt P11362); assay: Ba/F3-FGFR1 (minus IL3) cellular proliferation assay, Alamar Blue; assay type: cell-based
[11] = target: FGFR4 (h) (Homo sapiens, UniProt P22455); assay: FGFR4 (enzymatic assay), TR-FRET; assay type: biochemical; settings: average values if tested multiple times
[12] = tested on: Ba/F3-FGFR3-transfected cells; assay: Ba/F3-FGFR3 (plus IL3) cellular proliferation assay, counterscreen with 10 ng/ml murine IL3; assay type: cell-based; settings: plus IL3 (10 ng/ml murine IL3, counterscreen)
Protocol: Ba/F3-FGFR3 (Minus IL3 or Plus IL3) (Cellular Proliferation Assay)
as §1, with “Ba/F3-FGFR3-transfected” for “Ba/F3-Flt3-transfected”
as §2

[13] = target: FGFR2 (h) (Homo sapiens, UniProt P21802); assay: FGFR2 (enzymatic assay), TR-FRET; assay type: biochemical; settings: average values if tested multiple times
[14] = tested on: Ba/F3-KDR-transfected cells; assay: Ba/F3-KDR (plus IL3) cellular proliferation assay, counterscreen with 10 ng/ml murine IL3; assay type: cell-based; settings: plus IL3 (10 ng/ml murine IL3, counterscreen)
Protocol: as §3
as §1, with “n1” for “nl”, “Ba/F3-KDR-transfected” for “Ba/F3-Flt3-transfected”
as §2

Structure (SMILES)	BAF3_FLT3 (PLUS IL3) pIC50 [1]	FGFR 1 pIC50 [2]	FGFR 3 pIC50 [3]	BAF3-KDR (MIN IL3) pIC50 [4]	BAF3-FGFR3 (MIN IL3) pIC50 [5]	BAF3-FGFR1 (PLUS IL3) pIC50 [6]	VEGFR 2 (KDR) pIC50 [7]	BAF3-FGFR4 pIC50 [8]	BAF3-FLT3 (MIN IL3) pIC50 [9]	BAF3-FGFR1 (MIN IL3) pIC50 [10]	FGFR 4 pIC50 [11]	BAF3-FGFR3 (PLUS IL3) pIC50 [12]	FGFR 2 pIC50 [13]	BAF3-KDR (PLUS IL3) pIC50 [14]
COc1cc(OC)c(F)c(N(CC(O)C(F)(F)F)c2ccc3ncc(-c4cnn(C)c4)nc3n2)c1 (stereo not shown)	<5	8.82	8.66	5.69	7.80	<5	7.19	7.35	<5	7.88	8.58	<5	8.33	<5
COc1cc(N=c2ccc3ncc(-c4cnn(C)c4)nc3n2CC(O)C(F)(F)F)c(F)c(OC)c1 (stereo not shown)	<5	9.17	9.04	5.77	~7.57	<5	7.77	7.18	<5	7.71	8.82	<5	8.68	<5
